The values that follow are results of earlier work, collected in patent publication US6812025B2, “Two hybrid assay that detects HIV-1 reverse transcriptase dimerization” (priority 2000, dated 2004).

This data set deals with T1, RT heterodimer (Human immunodeficiency virus type 1 group M subtype B, UniProt P12497).
T1 construct: The enzyme is a heterodimer of p66 and p51 subunits
As to conditions: cited from earlier work.

Consider `O=C1Nc2ccc(Cl)cc2[C@@](C#CC2CC2)(C(F)(F)F)O1` [efavirenz], for which the “binding to the RT heterodimer” value is recorded as “bind very tightly”.
